In patent publication US20250152570A1 (AIR FORCE MEDICAL UNIVERSITY, priority 2022, published 2025):

Columns and labels:
Format in all cases: cell-based
Settings in all cases: at the same drug concentration
[1] = tested on: TE10 cells; experiment: CCK8 cell proliferation, TE10
Protocol: (§1) At the same time, BI-D1870 was used as a positive control, and no drug was used as a blank control (Black).
(§2) The CCK-8 cell proliferation kit of Shanghai Taoshu Biotechnology Co., Ltd. was used. • (1) Cell suspension was inoculated in a 96-well plate, 100 μL per well, 2,000 cells per well. • (2) Culture or give drugs according to experimental needs, and treat for an appropriate time. • (3) Add 10 μL of CCK-8 solution to each well and incubate at 37° C. • (4) The absorbance value was determined by selecting a wavelength of 450 nm on the microplate reader. The growth curve was drawn based on time and absorbance value.

[2] = tested on: ECA109 cells; experiment: CCK8 cell proliferation, ECA109
Protocol: as §1, §2

[3] = tested on: TE10 cells; experiment: Transwell migration assay, TE10
Protocol: as §1
(§3) • (1) Digest cells. Wash once with PBS, resuspend in serum-free medium, and adjust the cell density to 5×10^5/ml. • (2) Add 500 μl of culture medium containing 10% fetal bovine serum to the lower chamber of the 24-well plate. Take 200 μl of cell suspension and add it to the chamber. Note that there are no bubbles between the chamber and the lower culture medium. • (3) Culture routinely for 16-24 h. • (4) Aspirate the culture medium in the chamber, fix the cells in the chamber with anhydrous methanol for 15 min, and rinse with PBS. • (5) Color: Add Gumsa staining solution to the 24-well plate, immerse the membrane in the staining solution for 20 min, and wash with PBS. • (6) Carefully wipe off the cells on the inner layer of the membrane with a cotton swab and air-dry the membrane. • (7) Take pictures under a microscope, count 5 high-power fields, and take the average value.

[4] = tested on: ECA109 cells; experiment: Transwell migration assay, ECA109
Protocol: as §1, §3

Cc1cc(F)c(C(=O)Nc2cccc(-c3nncn3C(C)C)n2)cc1-n1cnc(C2CC2)c1 [Selonsertib, 5-(4-cyclopropyl-1H-imidazol-1-yl)-2-fluoro-N-(6-(4-isopropyl-4H-1,2,4-triazol-3-yl)pyridine-2-yl)-4-methylbenzamide]
stronger inhibitory effect: inhibitory effect on proliferation of TE10 versus BI-D1870 [1] | inhibitory effect on proliferation of ECA109 versus BI-D1870 [2] | inhibitory effect on migration of TE10 versus BI-D1870 [3] | inhibitory effect on migration of ECA109 versus BI-D1870 [4]
